Sequences of proteins named here, by UniProt entry; tags and fusion partners are left off.
UniProt Q9Y3Q4, whole entry: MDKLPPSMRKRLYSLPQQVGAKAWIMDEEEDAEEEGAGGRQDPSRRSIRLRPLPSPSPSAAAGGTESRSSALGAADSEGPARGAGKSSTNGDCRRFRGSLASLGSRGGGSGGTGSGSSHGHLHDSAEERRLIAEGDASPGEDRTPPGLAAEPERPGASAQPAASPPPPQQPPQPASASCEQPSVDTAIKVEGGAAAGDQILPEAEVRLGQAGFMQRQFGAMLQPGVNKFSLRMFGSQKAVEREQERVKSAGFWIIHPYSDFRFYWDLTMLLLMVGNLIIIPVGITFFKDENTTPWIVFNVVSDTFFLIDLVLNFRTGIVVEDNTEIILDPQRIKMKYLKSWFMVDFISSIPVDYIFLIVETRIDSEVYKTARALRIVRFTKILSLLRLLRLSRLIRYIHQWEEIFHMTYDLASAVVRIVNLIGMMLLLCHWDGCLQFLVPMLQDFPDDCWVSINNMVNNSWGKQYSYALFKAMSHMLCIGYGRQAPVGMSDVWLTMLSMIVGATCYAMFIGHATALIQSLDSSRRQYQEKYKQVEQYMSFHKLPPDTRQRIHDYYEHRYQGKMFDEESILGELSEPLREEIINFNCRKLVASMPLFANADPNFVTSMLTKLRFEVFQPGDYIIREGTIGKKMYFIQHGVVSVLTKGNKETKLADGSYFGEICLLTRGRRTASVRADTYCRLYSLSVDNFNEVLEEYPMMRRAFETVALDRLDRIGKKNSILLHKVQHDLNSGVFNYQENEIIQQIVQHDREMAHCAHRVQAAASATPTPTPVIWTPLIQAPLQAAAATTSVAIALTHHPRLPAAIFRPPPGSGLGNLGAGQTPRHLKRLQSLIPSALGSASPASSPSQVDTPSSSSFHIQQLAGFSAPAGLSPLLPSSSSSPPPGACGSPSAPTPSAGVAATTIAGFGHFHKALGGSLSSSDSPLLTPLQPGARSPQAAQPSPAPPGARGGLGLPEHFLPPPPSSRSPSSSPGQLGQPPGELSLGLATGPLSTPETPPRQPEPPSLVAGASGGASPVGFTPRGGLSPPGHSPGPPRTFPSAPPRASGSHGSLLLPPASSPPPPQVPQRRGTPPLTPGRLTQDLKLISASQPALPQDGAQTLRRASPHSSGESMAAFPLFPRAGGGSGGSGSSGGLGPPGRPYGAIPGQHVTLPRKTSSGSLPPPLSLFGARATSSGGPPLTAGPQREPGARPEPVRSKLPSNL
UniProt O60741, whole entry: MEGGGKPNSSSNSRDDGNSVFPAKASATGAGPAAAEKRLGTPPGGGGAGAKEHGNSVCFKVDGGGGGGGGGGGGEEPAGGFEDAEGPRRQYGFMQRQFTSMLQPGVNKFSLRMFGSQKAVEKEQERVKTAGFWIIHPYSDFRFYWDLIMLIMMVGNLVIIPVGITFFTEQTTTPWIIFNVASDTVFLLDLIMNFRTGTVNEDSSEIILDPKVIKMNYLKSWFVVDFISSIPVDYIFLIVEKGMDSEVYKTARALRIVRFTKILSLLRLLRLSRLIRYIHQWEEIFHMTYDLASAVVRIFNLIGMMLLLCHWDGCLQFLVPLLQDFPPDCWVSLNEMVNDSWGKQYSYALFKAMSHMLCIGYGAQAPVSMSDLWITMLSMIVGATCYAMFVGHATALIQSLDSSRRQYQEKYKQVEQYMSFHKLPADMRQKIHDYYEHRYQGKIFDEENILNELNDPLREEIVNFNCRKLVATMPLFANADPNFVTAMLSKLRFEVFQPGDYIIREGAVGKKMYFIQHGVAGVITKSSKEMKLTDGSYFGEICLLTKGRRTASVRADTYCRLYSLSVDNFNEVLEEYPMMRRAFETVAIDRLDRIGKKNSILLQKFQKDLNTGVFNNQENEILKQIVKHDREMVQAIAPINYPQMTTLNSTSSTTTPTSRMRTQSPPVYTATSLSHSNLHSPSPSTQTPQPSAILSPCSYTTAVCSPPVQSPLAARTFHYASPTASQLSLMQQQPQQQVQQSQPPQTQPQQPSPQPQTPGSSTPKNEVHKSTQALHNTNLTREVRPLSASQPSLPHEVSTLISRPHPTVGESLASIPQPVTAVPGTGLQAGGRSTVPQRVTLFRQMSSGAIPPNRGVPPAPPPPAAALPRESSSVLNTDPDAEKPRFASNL

In ChEMBL document CHEMBL1821572, “Discovery of a novel series of selective HCN1 blockers” (Bioorg Med Chem Lett, 2011):

Columns and labels:
[1] = target: Potassium/sodium hyperpolarization-activated cyclic nucleotide-gated channel 4 (Homo sapiens, UniProt Q9Y3Q4); assay: Inhibition of human HCN4 heterologously expressed in HEK-293 cells after 30 mins by VIPR assay; conditions: hek293
[2] = target: Potassium/sodium hyperpolarization-activated cyclic nucleotide-gated channel 1 (Homo sapiens, UniProt O60741); assay: Inhibition of human HCN1 heterologously expressed in HEK-293 cells after 30 mins by VIPR assay; conditions: hek293

SMILES | pIC50 [1] | pIC50 [2]
CCOc1ccccc1C(=O)NCC1(N2CCCCC2)CCCCC1 | 4.4 | 4.8
COc1ccccc1C(=O)NCC1(N2CCOCC2)CCCCC1 | 4.3 | –

This is a selection: effects in other tests are not listed, and their absence says nothing.
